Measurements from patent publication US9409917B2, “Heterocyclic amide derivatives as P2X7 receptor antagonists” (ACTELION PHARMACEUTICALS LTD., priority 2012, dated 2016).

Sequences of proteins named here, by UniProt entry; tags and fusion partners are left off. A change or cut given only in a name is not applied to a line headed by its entry.
UniProt Q99572: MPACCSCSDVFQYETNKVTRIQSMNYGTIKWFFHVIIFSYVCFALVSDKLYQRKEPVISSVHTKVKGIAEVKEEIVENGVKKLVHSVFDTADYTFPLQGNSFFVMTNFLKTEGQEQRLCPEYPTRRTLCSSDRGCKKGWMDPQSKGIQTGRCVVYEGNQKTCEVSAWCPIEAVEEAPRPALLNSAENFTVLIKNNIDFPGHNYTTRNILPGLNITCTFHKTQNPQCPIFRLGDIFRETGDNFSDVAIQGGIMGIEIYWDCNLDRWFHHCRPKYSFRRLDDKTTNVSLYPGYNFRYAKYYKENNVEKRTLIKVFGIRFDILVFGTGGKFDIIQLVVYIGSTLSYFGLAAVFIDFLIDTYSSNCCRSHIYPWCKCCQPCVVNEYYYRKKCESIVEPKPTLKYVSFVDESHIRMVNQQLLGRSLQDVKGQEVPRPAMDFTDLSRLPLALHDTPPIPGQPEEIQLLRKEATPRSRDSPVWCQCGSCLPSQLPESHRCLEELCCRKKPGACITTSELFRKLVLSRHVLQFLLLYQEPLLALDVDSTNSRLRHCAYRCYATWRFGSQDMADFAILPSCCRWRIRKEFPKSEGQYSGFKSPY

Each molecule was assayed against human recombinant P2X7 receptor (Homo sapiens (Human), UniProt Q99572) (assay: YO-PRO assay: P2X7 receptor antagonistic activity (ATP-induced YO-PRO-1 uptake, FLIPR)). Conditions: not given.

In order of falling IC50:
1. Cc1ncc(C(CNC(=O)C2COc3ncccc32)N2CCOCC2)cn1 (single isomer, unassigned) [Example 29, rac-2,3-Dihydro-furo[2,3-b]pyridine-3-carboxylic acid [2-(2-methyl-pyrimidin-5-yl)-2-morpholin-4-yl-ethyl]-amide]  1680 nM
2. O=C(NCc1ccc(Cl)cc1CO)C1COc2ncccc21 (racemic) [Example 117, rac-2,3-Dihydro-furo[2,3-b]pyridine-3-carboxylic acid 4-chloro-2-hydroxymethyl-benzylamide]  1490 nM
3. O=C(NCc1ccc(C(F)(F)F)cc1)C1COc2ncccc21 (racemic) [Example 47, rac-2,3-Dihydro-furo[2,3-b]pyridine-3-carboxylic acid 4-trifluoromethyl-benzylamide]  1250 nM
4. O=C(NC1CCc2c(Cl)cc(Cl)cc21)C1COc2ncccc21 (racemic) [Example 95, rac-2,3-Dihydro-furo[2,3-b]pyridine-3-carboxylic acid (4,6-dichloro-indan-1-yl)-amide]  978 nM
5. CN(Cc1ccc(Cl)cc1)C(=O)C1CCOc2ncccc21 (racemic) [Example 37, rac-3,4-Dihydro-2H-pyrano[2,3-b]pyridine-4-carboxylic acid (4-chloro-benzyl)-methyl-amide]  758 nM
6. O=C(NC1CCc2c(Cl)cc(Cl)cc21)C1COc2ncccc21 (racemic) [Example 94, rac-2,3-Dihydro-furo[2,3-b]pyridine-3-carboxylic acid (4,6-dichloro-indan-1-yl)-amide]  570 nM
7. Cc1ncc(C(CNC(=O)C2COc3ncccc32)N2CCOCC2)cn1 (single isomer, unassigned) [Example 30, rac-2,3-Dihydro-furo[2,3-b]pyridine-3-carboxylic acid [2-(2-methyl-pyrimidin-5-yl)-2-morpholin-4-yl-ethyl]-amide]  225 nM
8. N#Cc1cccc(CNC(=O)C2COc3ncccc32)c1Cl (racemic) [Example 56, rac-2,3-Dihydro-furo[2,3-b]pyridine-3-carboxylic acid 2-chloro-3-cyano-benzylamide]  125 nM
9. O=C(NCC(c1ccc(Cl)nc1)N1CCC(F)(F)CC1)C1COc2ncccc21 (single isomer, unassigned) [Example 74, rac-2,3-Dihydro-furo[2,3-b]pyridine-3-carboxylic acid [2-(6-chloro-pyridin-3-yl)-2-(4,4-difluoro-piperidin-1-yl)-ethyl]-amide]  120 nM
10. O=C(NCC(c1ccc(Cl)nc1)N1CCC(F)(F)CC1)C1COc2ncccc21 (single isomer, unassigned) [Example 75, rac-2,3-Dihydro-furo[2,3-b]pyridine-3-carboxylic acid [2-(6-chloro-pyridin-3-yl)-2-(4,4-difluoro-piperidin-1-yl)-ethyl]-amide]  35.3 nM
11. O=C(NCc1cccc(Cl)c1C(F)(F)F)C1COc2ncccc21 (racemic) [Example 73, rac-2,3-Dihydro-furo[2,3-b]pyridine-3-carboxylic acid 3-chloro-2-trifluoromethyl-benzylamide]  20.2 nM
12. O=C(NCC1(c2ccc(Cl)nc2)CCC(F)(F)CC1)C1CCOc2ncccc21 (racemic) [Example 67, rac-3,4-Dihydro-2H-pyrano[2,3-b]pyridine-4-carboxylic acid (1-(6-chloropyridin-3-yl)-4,4-difluorocyclohexylmethyl)-amide]  7.3 nM
13. O=C(NCC1(c2ccc(Cl)nc2)CCCCC1)C1CCOc2ncccc21 (racemic) [Example 19, rac-3,4-Dihydro-2H-pyrano[2,3-b]pyridine-4-carboxylic acid [1-(6-chloro-pyridin-3-yl)-cyclohexylmethyl]-amide]  6.3 nM

Same assay, conditions: read-out: IC50 [nM], antagonistic activities with respect to the P2X7 receptor; HEK-293 cells expressing human recombinant P2X7 receptor; YO-PRO-1 fluorescence; ATP 250 μM, 90 minutes; highest concentration 10 μM

In order of rising IC50:
1. O=C(NC1CCc2cc(Cl)cc(Cl)c21)C1COc2ncccc21 (single isomer, unassigned) [Example 105, 2,3-Dihydro-furo[2,3-b]pyridine-3-carboxylic acid (5,7-dichloro-indan-1-yl)-amide]  1.3 nM
2. O=C(NC1CCc2cccc(Cl)c21)C1COc2ncccc21 (single isomer, unassigned) [Example 110, 2,3-Dihydro-furo[2,3-b]pyridine-3-carboxylic acid (7-chloro-indan-1-yl)-amide]  5.5 nM
3. O=C(NC1CCc2cc(Cl)cc(Cl)c21)C1COc2ncccc21 (single isomer, unassigned) [Example 85, 2,3-Dihydro-furo[2,3-b]pyridine-3-carboxylic acid (5,7-dichloro-indan-1-yl)-amide]  9.5 nM
4. O=C(NC1CCc2cc(Cl)cc(Cl)c21)C1COc2ncccc21 (single isomer, unassigned) [Example 86, 2,3-Dihydro-furo[2,3-b]pyridine-3-carboxylic acid (5,7-dichloro-indan-1-yl)-amide]  164 nM
5. O=C(NC1CCc2cc(Cl)cc(Cl)c21)C1COc2ncccc21 (single isomer, unassigned) [Example 104, 2,3-Dihydro-furo[2,3-b]pyridine-3-carboxylic acid (5,7-dichloro-indan-1-yl)-amide]  5100 nM
6. O=C(NC1CCc2cccc(Cl)c21)C1COc2ncccc21 (single isomer, unassigned) [Example 109, 2,3-Dihydro-furo[2,3-b]pyridine-3-carboxylic acid (7-chloro-indan-1-yl)-amide]  10000 nM
